Test results as given in patent US20170246137A1, “SULFESTROL FOR TREATING CANCER” (CHAMAELEO PHARMA BVBA, priority 2012, published 2017).

What was measured:
Test in all cases: In vitro direct cytotoxicity, Cell titer Blue viability, 72 hrs
[1] = tested on: MDA-MB-231; conditions: MDA-MB231
Method: (§1) Cells were maintained in vitro in RPMI 1640 containing 10% (v/v) heat inactivated FBS and 2 mM L-glutamine (growth media) at 37° C. in 5% CO2 and humidified conditions. Cells were harvested, washed, resuspended into growth medium and counted. The cells were re-suspended into assay media (RPMI 1640+1% (v/v) heat inactivated FBS+ and 2 mM L-glutamine) at 0.5-1×10^5 cells/ml (dependent upon cell type) and plated into 96-well assay plates (Corning, black-wall plates) in 50 ul/well aliquots.
(§2) Plates were incubated overnight at 37° C. in 5% humidified CO2 prior to addition of the compounds. […] Stocks of all compounds were then serially diluted. Final concentrations to which cells were exposed were 300, 150, 75, 37.5, 18.75, 9.4, 4.7, 2.3, 1.2, 0.6 μM. Positive control was Cisplatin. Cisplatin was diluted in 1% FBS media to give a stock concentration of 1 mM. Cisplatin stock was then serially diluted. Final concentrations to which cells were exposed were 100, 50, 25, 12.5, 6.3, 3.1, 1.6, 0.8, 0.4, 0.2 μM.
(§3) Plates were incubated for 72 hrs at 37° C. in 5% humidified CO2 after addition of the compounds. Viability of the cells was assessed with the Cell titer Blue™ (Promega) assay. 10 μl of Cell titer Blue™ reagents was added to each test/blank well. Plates were incubated 3 h at 37° C. in 5% humidified CO2 prior to analysis. Fluorescence was measured with a Flex II station plate reader. […]

[2] = tested on: MCF7
Method: as §1, §2, §3

[3] = tested on: DU-145; assay type: cell-based
Method: (§4) Cells were harvested, washed, re-suspended into growth medium and counted.
(§5) Stocks of all compounds were then serially diluted. […] Positive control was Taxotere. Taxotere was diluted in 100% DSMO to give a stock concentration of 1 mM. Stock was serially diluted. Final concentrations to which cells were exposed were 1000, 333.3, 111.1, 37.0, 12.3, 4.1, 1.4, 0.5, and 0.2 nM.

[4] = tested on: LNCaP; assay type: cell-based
Method: as §4, §5

Measured: cytotoxicity in vitro (in words)

4,4′-(hex-3-ene-3,4-diyl)bis(4,1-phenylene) disulfate [Di-Sulfestrol]
inactive: all assays above
